Assays:
CRF2R = biological target: T1, CRF2R (Homo sapiens, UniProt Q13324); assay: CRF2R agonist activation (EC50 / Emax), called comparative CRF binding; format: cell-based; details: read-out: CRF2R Emax
T1 sequence (Q13324 1-411): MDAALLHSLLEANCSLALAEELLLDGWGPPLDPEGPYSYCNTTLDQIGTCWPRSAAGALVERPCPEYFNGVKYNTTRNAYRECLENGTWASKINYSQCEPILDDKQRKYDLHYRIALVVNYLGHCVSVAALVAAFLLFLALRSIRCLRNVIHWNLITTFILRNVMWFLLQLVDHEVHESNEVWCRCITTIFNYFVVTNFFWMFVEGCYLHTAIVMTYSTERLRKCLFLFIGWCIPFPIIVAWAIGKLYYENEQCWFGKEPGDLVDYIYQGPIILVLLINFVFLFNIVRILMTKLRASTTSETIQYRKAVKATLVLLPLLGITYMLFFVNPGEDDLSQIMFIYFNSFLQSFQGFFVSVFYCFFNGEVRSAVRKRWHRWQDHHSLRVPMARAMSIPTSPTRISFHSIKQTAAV
Outline: (§1)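 Agonism at each human CRF receptor subtype is inferred from increased cAMP relative to vehicle, using cells expressing that subtype and either lysate cAMP measurement or a cAMP response element reporter.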

CRF1R = biological target: T2, CRF1R (Homo sapiens, UniProt P34998); assay: CRF1R agonist activation (EC50 / Emax), called comparative CRF binding; format: cell-based; details: read-out: CRF1R Emax
T2 sequence (P34998 24-415): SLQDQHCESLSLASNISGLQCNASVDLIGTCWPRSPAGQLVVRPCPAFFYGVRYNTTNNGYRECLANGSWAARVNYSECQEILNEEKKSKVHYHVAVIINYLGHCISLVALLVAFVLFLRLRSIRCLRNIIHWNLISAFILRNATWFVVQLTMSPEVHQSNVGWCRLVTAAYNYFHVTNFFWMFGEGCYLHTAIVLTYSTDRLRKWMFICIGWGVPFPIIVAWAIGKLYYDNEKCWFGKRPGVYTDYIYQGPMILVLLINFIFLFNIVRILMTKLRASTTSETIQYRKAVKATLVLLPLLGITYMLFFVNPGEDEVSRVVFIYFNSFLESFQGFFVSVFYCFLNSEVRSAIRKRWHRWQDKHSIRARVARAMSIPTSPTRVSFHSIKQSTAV
Outline: as §1

Structure (SMILES)	Emax (CRF2R) [%]	Emax (CRF1R) [%]
CC[C@H](C)[C@H](NC(=O)[C@@H](NC(=O)[C@H](CC(=O)O)NC(=O)[C@H](CC(C)C)NC(=O)[C@H](CC(C)C)NC(=O)[C@H](CC(C)C)NC(=O)[C@H](CCCNC(=N)N)NC(=O)[C@H](CC(N)=O)NC(=O)[C@H](CC(N)=O)NC(=O)[C@H](C)NC(=O)[C@H](C)NC(=O)[C@H](CCC(N)=O)NC(=O)[C@H](CCC(N)=O)NC(=O)[C@H](CCCCN)NC(=O)[C@H](CCC(=O)O)NC(=O)[C@H](CCCCN)NC(=O)[C@H](CCC(=O)O)NC(=O)[C@H](CCC(N)=O)NC(=O)[C@H](CCCCN)NC(=O)[C@H](CCC(=O)O)NC(=O)[C@@H](NC(=O)[C@H](CCC(=O)O)NC(=O)[C@@H](NC(=O)[C@H](CCSC)NC(=O)[C@H](CCCCN)NC(=O)[C@H](CCCNC(=N)N)NC(=O)[C@H](CC(C)C)NC(=O)[C@H](CC(C)C)NC(=O)[C@H](Cc1ccc(O)cc1)NC(=O)[C@H](Cc1c[nH]c2ccccc12)NC(=O)[C@@H]1CCCN1C(=O)[C@H](CC(C)C)NC(=O)[C@H](CC(=O)O)NC(=O)[C@@H](NC(=O)[C@H](CO)NC(=O)[C@@H](NC(=O)[C@@H]1CCCN1C(=O)[C@@H]1CCCN1C(=O)CNC(=O)[C@@H]1CCC(=O)N1)[C@@H](C)CC)[C@@H](C)CC)[C@@H](C)CC)[C@@H](C)CC)[C@@H](C)O)C(N)=O [compound 55]	95	92
CC[C@H](C)[C@H](NC(=O)[C@@H](NC(=O)[C@H](CC(=O)O)NC(=O)[C@H](CC(C)C)NC(=O)[C@H](CC(C)C)NC(=O)[C@H](CC(C)C)NC(=O)[C@H](CCCNC(=N)N)NC(=O)[C@H](CC(N)=O)NC(=O)[C@H](CC(N)=O)NC(=O)[C@H](C)NC(=O)[C@H](C)NC(=O)[C@H](CCC(N)=O)NC(=O)[C@H](CCC(N)=O)NC(=O)[C@H](CCCCN)NC(=O)[C@H](CCC(=O)O)NC(=O)[C@H](CCCCN)NC(=O)[C@H](CCC(=O)O)NC(=O)[C@H](CCC(N)=O)NC(=O)[C@H](CCCCN)NC(=O)[C@H](CCC(=O)O)NC(=O)[C@@H](NC(=O)[C@H](CCC(=O)O)NC(=O)[C@@H](NC(=O)[C@H](CCSC)NC(=O)[C@H](CCCCN)NC(=O)[C@H](CCCNC(=N)N)NC(=O)[C@H](CC(C)C)NC(=O)[C@H](CC(C)C)NC(=O)[C@H](Cc1c[nH]cn1)NC(=O)[C@H](Cc1ccccc1)NC(=O)[C@@H]1CCCN1C(=O)[C@H](CC(C)C)NC(=O)[C@H](CC(=O)O)NC(=O)[C@@H](NC(=O)[C@H](CO)NC(=O)[C@@H](NC(=O)[C@@H]1CCCN1C(=O)[C@@H]1CCCN1C(=O)CNC(=O)[C@@H]1CCC(=O)N1)[C@@H](C)CC)[C@@H](C)CC)[C@@H](C)CC)[C@@H](C)CC)[C@@H](C)O)C(N)=O [compound 69]	81	88
CC[C@H](C)[C@H](NC(=O)[C@@H](NC(=O)[C@H](CC(=O)O)NC(=O)[C@H](CC(C)C)NC(=O)[C@H](CC(C)C)NC(=O)[C@H](CC(C)C)NC(=O)[C@H](CCCNC(=N)N)NC(=O)[C@H](CC(N)=O)NC(=O)[C@H](CC(N)=O)NC(=O)[C@H](C)NC(=O)[C@H](C)NC(=O)[C@H](CCC(N)=O)NC(=O)[C@H](CCC(N)=O)NC(=O)[C@H](CCCCN)NC(=O)[C@H](CCC(=O)O)NC(=O)[C@H](CCCCN)NC(=O)[C@H](CCC(=O)O)NC(=O)[C@H](CCC(N)=O)NC(=O)[C@H](CCCCN)NC(=O)[C@H](CCC(=O)O)NC(=O)[C@@H](NC(=O)[C@H](CCC(=O)O)NC(=O)[C@@H](NC(=O)[C@H](CCSC)NC(=O)[C@H](CCCCN)NC(=O)[C@H](CCCNC(=N)N)NC(=O)[C@H](CC(C)C)NC(=O)[C@H](CC(C)C)NC(=O)[C@@H]1CCCN1C(=O)[C@@H](NC(=O)[C@@H]1CCCN1C(=O)[C@H](CC(C)C)NC(=O)[C@H](CC(=O)O)NC(=O)[C@@H](NC(=O)[C@H](CO)NC(=O)[C@@H](NC(=O)[C@@H]1CCCN1C(=O)[C@@H]1CCCN1C(=O)CNC(=O)[C@@H]1CCC(=O)N1)[C@@H](C)CC)[C@@H](C)CC)[C@@H](C)O)[C@@H](C)CC)[C@@H](C)CC)[C@@H](C)O)C(N)=O [compound 52]	10	13
CC[C@H](C)[C@H](NC(=O)[C@@H](NC(=O)[C@H](CC(=O)O)NC(=O)[C@H](CC(C)C)NC(=O)[C@H](CC(C)C)NC(=O)[C@H](CC(C)C)NC(=O)[C@H](CCCNC(=N)N)NC(=O)[C@H](CC(N)=O)NC(=O)[C@H](CC(N)=O)NC(=O)[C@H](C)NC(=O)[C@H](C)NC(=O)[C@H](CCC(N)=O)NC(=O)[C@H](CCC(N)=O)NC(=O)[C@H](CCCCN)NC(=O)[C@H](CCC(=O)O)NC(=O)[C@H](CCCCN)NC(=O)[C@H](CCC(=O)O)NC(=O)[C@H](CCC(N)=O)NC(=O)[C@H](CCCCN)NC(=O)[C@H](CCC(=O)O)NC(=O)[C@@H](NC(=O)[C@H](CCC(=O)O)NC(=O)[C@@H](NC(=O)[C@H](CCSC)NC(=O)[C@H](CCCCN)NC(=O)[C@H](CCCNC(=N)N)NC(=O)[C@H](CC(C)C)NC(=O)[C@H](CC(C)C)NC(=O)[C@H](Cc1ccc(O)cc1)NC(=O)[C@H](CC(N)=O)NC(=O)[C@@H]1CCCN1C(=O)[C@H](CC(C)C)NC(=O)[C@H](CC(=O)O)NC(=O)[C@@H](NC(=O)[C@H](CO)NC(=O)[C@@H](NC(=O)[C@@H]1CCCN1C(=O)[C@@H]1CCCN1C(=O)CNC(=O)[C@@H]1CCC(=O)N1)[C@@H](C)CC)[C@@H](C)CC)[C@@H](C)CC)[C@@H](C)CC)[C@@H](C)O)C(N)=O [compound 64]	94	57
CC[C@H](C)[C@H](NC(=O)[C@@H](NC(=O)[C@H](CC(=O)O)NC(=O)[C@H](CC(C)C)NC(=O)[C@H](CC(C)C)NC(=O)[C@H](CC(C)C)NC(=O)[C@H](CCCNC(=N)N)NC(=O)[C@H](CC(N)=O)NC(=O)[C@H](CC(N)=O)NC(=O)[C@H](C)NC(=O)[C@H](C)NC(=O)[C@H](CCC(N)=O)NC(=O)[C@H](CCC(N)=O)NC(=O)[C@H](CCCCN)NC(=O)[C@H](CCC(=O)O)NC(=O)[C@H](CCCCN)NC(=O)[C@H](CCC(=O)O)NC(=O)[C@H](CCC(N)=O)NC(=O)[C@H](CCCCN)NC(=O)[C@H](CCC(=O)O)NC(=O)[C@@H](NC(=O)[C@H](CCC(=O)O)NC(=O)[C@@H](NC(=O)[C@H](CCSC)NC(=O)[C@H](CCCCN)NC(=O)[C@H](CCCNC(=N)N)NC(=O)[C@H](CC(C)C)NC(=O)[C@H](CC(C)C)NC(=O)[C@H](Cc1ccccc1)NC(=O)[C@H](Cc1c[nH]c2ccccc12)NC(=O)[C@@H]1CCCN1C(=O)[C@H](CC(C)C)NC(=O)[C@H](CC(=O)O)NC(=O)[C@@H](NC(=O)[C@H](CO)NC(=O)[C@@H](NC(=O)[C@@H]1CCCN1C(=O)[C@@H]1CCCN1C(=O)CNC(=O)[C@@H]1CCC(=O)N1)[C@@H](C)CC)[C@@H](C)CC)[C@@H](C)CC)[C@@H](C)CC)[C@@H](C)O)C(N)=O [compound 187]	100	72
CC[C@H](C)[C@H](NC(=O)[C@@H](NC(=O)[C@H](C)NC(=O)[C@H](CC(C)C)NC(=O)[C@H](CC(C)C)NC(=O)[C@H](CC(C)C)NC(=O)[C@H](C)NC(=O)[C@H](CC(N)=O)NC(=O)[C@H](CC(N)=O)NC(=O)[C@H](C)NC(=O)[C@H](C)NC(=O)[C@H](CCC(N)=O)NC(=O)[C@H](CCC(N)=O)NC(=O)[C@H](CCCCN)NC(=O)[C@H](CCC(=O)O)NC(=O)[C@H](CCCCN)NC(=O)[C@H](CCC(=O)O)NC(=O)[C@H](CCC(N)=O)NC(=O)[C@H](CCCCN)NC(=O)[C@H](CCC(=O)O)NC(=O)[C@@H](NC(=O)[C@H](CCC(=O)O)NC(=O)[C@@H](NC(=O)[C@H](CC(C)C)NC(=O)[C@H](CCCCN)NC(=O)[C@H](CCCNC(=N)N)NC(=O)[C@H](CC(C)C)NC(=O)[C@H](CC(C)C)NC(=O)[C@H](CCC(N)=O)NC(=O)[C@H](Cc1ccccc1)NC(=O)[C@@H]1CCCN1C(=O)[C@H](CC(C)C)NC(=O)[C@H](CC(=O)O)NC(=O)[C@@H](NC(=O)[C@H](CO)NC(=O)[C@@H](NC(=O)[C@@H]1CCCN1C(=O)[C@@H]1CCCN1C(=O)CNC(=O)[C@@H]1CCC(=O)N1)[C@@H](C)CC)[C@@H](C)CC)[C@@H](C)CC)[C@@H](C)CC)[C@@H](C)O)C(N)=O [compound 357]	100	100
CC[C@H](C)[C@H](NC(=O)[C@H](CCCNC(=N)N)NC(=O)[C@H](C)NC(=O)[C@H](CC(C)C)NC(=O)[C@H](CC(C)C)NC(=O)[C@H](CCCNC(=N)N)NC(=O)[C@H](C)NC(=O)[C@H](CC(N)=O)NC(=O)[C@H](CC(N)=O)NC(=O)[C@H](C)NC(=O)[C@H](C)NC(=O)[C@H](CCC(N)=O)NC(=O)[C@H](CCC(N)=O)NC(=O)[C@H](CCCCN)NC(=O)[C@H](CCC(=O)O)NC(=O)[C@H](CCCCN)NC(=O)[C@H](CCC(=O)O)NC(=O)[C@H](CCC(N)=O)NC(=O)[C@H](CCCCN)NC(=O)[C@H](CCC(=O)O)NC(=O)[C@@H](NC(=O)[C@H](CCC(=O)O)NC(=O)[C@@H](NC(=O)[C@@H](NC(=O)[C@H](CCCCN)NC(=O)[C@H](CCCNC(=N)N)NC(=O)[C@H](CC(C)C)NC(=O)[C@H](CC(C)C)NC(=O)[C@@H](NC(=O)[C@@H](NC(=O)[C@@H]1CCCN1C(=O)[C@H](CC(C)C)NC(=O)[C@H](CC(=O)O)NC(=O)[C@@H](NC(=O)[C@H](CO)NC(=O)[C@@H](NC(=O)[C@@H]1CCCN1C(=O)[C@@H]1CCCN1C(=O)CNC(=O)[C@@H]1CCC(=O)N1)[C@@H](C)CC)[C@@H](C)CC)[C@@H](C)CC)[C@@H](C)CC)C(C)C)[C@@H](C)CC)[C@@H](C)CC)C(N)=O [compound 295]	67.6	5.3

Source: patent US6936585B2, “Corticotropin releasing factor 2 receptor agonists” (priority 2002, dated 2005)
